The values below come from ChEMBL document CHEMBL5365457, “Selective HDAC3 Inhibitors with Potent In Vivo Antitumor Efficacy against Triple-Negative Breast Cancer” (J Med Chem, 2023).

Sequences of proteins named here, by UniProt entry; tags and fusion partners are left off. A change or cut given only in a name is not applied to a line headed by its entry.
UniProt O15379: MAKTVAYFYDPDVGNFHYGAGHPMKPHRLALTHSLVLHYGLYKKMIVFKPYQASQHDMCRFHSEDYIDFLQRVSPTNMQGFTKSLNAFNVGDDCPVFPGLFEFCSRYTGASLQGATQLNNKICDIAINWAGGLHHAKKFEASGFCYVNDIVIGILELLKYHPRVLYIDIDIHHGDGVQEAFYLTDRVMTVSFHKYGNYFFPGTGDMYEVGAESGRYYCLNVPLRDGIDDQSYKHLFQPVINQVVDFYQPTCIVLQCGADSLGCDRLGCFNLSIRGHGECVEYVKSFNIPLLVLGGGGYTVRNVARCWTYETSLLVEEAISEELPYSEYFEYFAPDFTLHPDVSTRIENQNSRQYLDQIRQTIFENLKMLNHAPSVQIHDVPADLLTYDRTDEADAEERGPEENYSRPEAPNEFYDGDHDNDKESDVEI

Test [1] addresses T1, Histone deacetylase 3 (Homo sapiens, UniProt O15379). Briefly: Potency index, ratio of BG-45 IC50 to test compound IC50 for inhibition of HDAC3 (unknown origin).
For test [2], the species on record is Homo sapiens. The test can be described thus: Selectivity ratio of IC50 for inhibition of human recombinant HDAC1 to IC50 inhibition of human recombinant HDAC3.
The species entered for test [3] is Homo sapiens. The test can be described thus: Selectivity ratio of IC50 for inhibition of human recombinant HDAC1 to IC50 inhibition of human recombinant HDAC2.
Test [4] addresses T1, Histone deacetylase 3. Briefly: Potency index, ratio of PT3 IC50 to test compound IC50 for inhibition of HDAC3 (unknown origin).

SMILES strings stand for the structures.

Consider `CCCNNC(=O)c1cnc(NCc2ccc(OC)cc2)cn1`, for which the Ratio IC50 at Histone deacetylase 3 [1] amounted to 17.5; in the test listed under Homo sapiens [2], 121; in the test listed under Homo sapiens [3] it was 121; at Histone deacetylase 3 [4] it was 17.5.
